Test results taken from patent US20240109852A1, “Ferroptosis-HDAC Inhibitor Hybrid Anticancer Agents” (The University of Toledo, priority 2022, published 2024).

How the values were obtained:
[1] = system: NCI-H522 human lung cancer cells; experiment: Cell viability assay (methylene blue staining), NCI-H522; type: cell-based; conditions: NCI-H522, 72 h, read-out: IC50 ± SD (n = 3) on NCI-H522 cell line
[2] = system: HCT116 human colorectal carcinoma cells; experiment: Cell viability assay (methylene blue staining), HCT-116; type: cell-based; conditions: HCT-116, 72 h, read-out: IC50 ± SD (n = 3) on HCT-116 cell line
[3] = system: CCRF-CEM cell line (leukemia); conditions: single dose of 10 mM
[4] = system: NCI-H23 cell line (NSC-Lung cancer); conditions: single dose of 10 mM
[5] = system: SF-539 (CNS cancer cell line); conditions: single dose of 10 mM
[6] = system: SNB-75 (CNS cancer cell line); conditions: single dose of 10 mM
[7] = system: LOX IMVI cell line (melanoma); conditions: single dose of 10 mM
[8] = system: IGROV-1 (ovarian cancer cell line); conditions: single dose of 10 mM
[9] = system: PC-3 cells (prostate cancer); conditions: single dose of 10 mM
[10] = system: DU-145 cells (prostate cancer); conditions: single dose of 10 mM
[11] = system: MDA-MB-231 (triple-negative breast cancer cell line); conditions: single dose of 10 mM

| Structure (SMILES) | IC50 [1] | IC50 [2] | also measured |
| --- | --- | --- | --- |
| C#Cc1nc(C(=O)NCCCCCCC(=O)OC)cs1 [FC-1, Methyl 7-(2-ethynylthiazole-4-carboxamido)heptanoate] | 3.33 µM | – | – |
| C#Cc1nc(/C=C\CCCCCC(=O)OCC)cs1 [FC-2, Ethyl (Z)-8-(2-ethynylthiazol-4-yl)oct-7-enoate] | 7.33 µM | – | – |
| C#Cc1nc(/C=C/CCCCCC(=O)OCC)cs1 [FC-3, Ethyl (E)-8-(2-ethynylthiazol-4-yl)oct-7-enoate] | 15.7 µM | – | – |
| C#Cc1nc(/C=C/C=C/C(=O)OC)cs1 [FC-4, Methyl (2E,4E)-5-(2-ethynylthiazol-4-yl)penta-2,4-dienoate] | 2.8 µM | – | – |
| C#Cc1nc(/C=C/C(=O)OC)cs1 [FC-5, Methyl (E)-3-(2-ethynylthiazol-4-yl)acrylate] | 2.29 µM | 13.7 µM | – |

The next lines start with results.

| IC50 [1] | IC50 [2] | Structure (SMILES) | also measured |
| --- | --- | --- | --- |
| – | 0.61 µM | C#Cc1nc(C(=O)NCCCCCCC(=O)NO)cs1 [HY-1, 2-Ethynyl-N-(7-(hydroxyamino)-7-oxoheptyl)thiazole-4-carboxamide] | Growth %, CCRF-CEM [3]: −41.42%; Growth %, NCI-H23 [4]: −74.60%; Growth %, SF-539 [5]: −80.14%; Growth %, SNB-75 [6]: −65.15%; Growth %, LOX IMVI [7]: −84.63%; Growth %, IGROV-1 [8]: −72.55%; Growth %, PC-3 [9]: 14.28%; Growth %, DU-145 [10]: −51.12%; Growth %, MDA-MB-231 [11]: −71.82% |
| 0.52 µM | 5.43 µM | C#Cc1nc(/C=C/C=C/C(=O)NO)cs1 [HY-4, (2E,4E)-5-(2-ethynylthiazol-4-yl)-N-hydroxypenta-2,4-dienamide] | – |
| 0.79 µM | 5.16 µM | C#Cc1nc(/C=C/C(=O)NO)cs1 [HY-5, (E)-3-(2-ethynylthiazol-4-yl)-N-hydroxyacrylamide] | – |
